Biological target: Histamine H3 receptor (Homo sapiens, UniProt Q9Y5N1)
Experiment: Mean binding affinity for human H3 receptor

By UniProt entry, the sequences of proteins in these tests, tags left out. Where a name states a change or a piece, a line headed by the entry shows the natural chain unless it says otherwise.
UniProt Q9Y5N1: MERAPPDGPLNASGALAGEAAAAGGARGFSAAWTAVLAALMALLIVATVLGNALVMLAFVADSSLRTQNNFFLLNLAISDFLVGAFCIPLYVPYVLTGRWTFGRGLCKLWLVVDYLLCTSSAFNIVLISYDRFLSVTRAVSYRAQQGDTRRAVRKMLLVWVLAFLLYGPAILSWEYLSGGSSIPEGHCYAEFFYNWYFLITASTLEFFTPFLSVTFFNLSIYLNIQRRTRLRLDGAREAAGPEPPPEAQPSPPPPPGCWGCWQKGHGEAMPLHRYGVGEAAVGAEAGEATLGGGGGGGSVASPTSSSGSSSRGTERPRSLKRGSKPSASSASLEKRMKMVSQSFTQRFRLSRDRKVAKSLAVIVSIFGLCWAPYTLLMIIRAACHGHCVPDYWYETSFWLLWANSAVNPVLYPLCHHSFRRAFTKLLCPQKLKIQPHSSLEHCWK

SMILES | Ki
N#Cc1ccc(OC2CCN(Cc3ccccc3)CC2)cc1 | 5.37 µM
CN1CCC(Oc2ccc(C#N)cc2)CC1 | 4.27 µM
CC(C)N1CCC(Oc2ccc(C#N)cc2)CC1 | 0.0282 µM

Source: ChEMBL document CHEMBL1143554, “4-phenoxypiperidines: potent, conformationally restricted, non-imidazole histamine H3 antagonists” (J Med Chem, 2005)
